# Data reported in patent publication US20080160006A1, “Nutrient Medium for Maintaining Neural Cells in Injured Nervous System” (priority 2001, published 2008).
# Test system: human cortical brain cells (neurons vs glia)
# Assay: Adult human cortical brain cells cultured in B27/Neurobasal A, immunostained for neurofilament and GFAP
# Format: cell-based
# Source text: GENERAL METHODS. Brain tissue was ethically obtained by informed consent from patients before surgery under protocols approved by the Springfield Committee for Research on Human Subjects and the UC Irvine IRB. […] Rather than using aspiration to remove all tissue, slices of tissue 1-3 mm thick were obtained from cortical access ports or tissue that was marginal to the lesion. Use of electrocautery was kept to a minimum to reduce oxyradicals and other neuron damage. […] Hibernate A contains D-glucose, pyruvate, balanced salts, amino acids, and vitamins. B27 contains 5 antioxidants and 15 other components. […] After transport on ice to a laminar flow sterile hood in the culture laboratory, meninges and white matter were removed from the tissue with a scalpel and forceps in a 35 mm dish in 2 ml transport medium. […] The cell suspension was enriched for neurons by centrifugation on a density gradient of Optiprep (Invitrogen). […] The diluted Optiprep was further diluted with transport medium (v/v) to make a gradient containing 4 steps of 1 ml in a 15 ml centrifuge tube: bottom (0.35:0.65), 0.25:0.75, 0.2:0.8, top (0.15:0.85). Up to 6 ml of cell suspension was layered over the Optiprep step gradient. […] Cells were plated at a density of 320/mm^2 onto glass coverslips coated with polylysine as previously described. Cells were cultured in Neurobasal™ A medium (Invitrogen) with 2 percent B27, 5 ng/ml FGF2 (basic human recombinant fibroblast growth factor, Invitrogen) and 0.5 mM glutamine in a humidified atmosphere of 9 percent O2, and 5 percent CO2 (Forma, Marietta, Ohio). […] EGF (20 ng/ml; murine, Invitrogen) and NT3 (100 ng/ml; recombinant, Regeneron) were added as indicated from 500× stock solutions in 1 percent BSA/PBS. Half of the medium was replaced with fresh medium every 3-4 days.
# For immunocytology, cultures were rinsed twice in warm PBS and fixed for 10 minutes in 4 percent paraformaldehyde in PBS. After rinsing twice with PBS, cells for GFAP staining were postfixed for 20 minutes in acetic acid/ethanol (1:9, v/v) before rinsing again with PBS. Non-specific sites were blocked, and cells were permeabilized for 5 minutes in 5 percent normal goat serum, and 0.5 percent Triton X-100. Cells were incubated with primary antibodies for 1 hour at 22° C. in 5 percent goat serum, and 0.05 percent Triton as follows: mouse anti-neurofilament 200 (1:40, Sigma) with rabbit anti-cow GFAP (1:2000, Dako), or mouse anti-MAP2 (1:250, Boeringer-Mannheim) with rabbit anti-tau (1:2000). After rinsing four times with PBS, cells were incubated 1 hour at 22° C. with a rhodamine-conjugate of goat anti-rabbit IgG (heavy+light chain, 1:500, Tago) together with a cy2-conjugate of goat anti-mouse IgG (heavy+light chain, 1:100, Jackson). After rinsing four times in PBS, coverslips were mounted with Aquamount and imaged through a Nikon 60×/1.4 objective using a Spot cooled CCD camera (Diagnostic Instruments).
# Human cortical brain tissue was obtained for culture from eleven consecutive surgical cases, including seven tumor cases, three cases of epilepsy, and one case of suprabulbar palsy. Patients ranged in age from 41 to 70 years.
# Neuronal Characteristics of Isolated Cells. Cytoskeletal components were used as specific markers to distinguish neurons from glia. Microtubule associated proteins, MAP2 and tau, are generally associated with somatodendritic and axonal regions of neurons, respectively.
# [1] = surgical sample 1, glioma r. temporal, 46 M, addition to B27/Neurobasal A, after 6 days
smiles,measurement,setting,value
"C[C@]12CC[C@H](OS(=O)(=O)O)CC1=CC[C@@H]1[C@@H]2CC[C@]2(C)C(=O)CC[C@@H]12 [DHEAS, dehydroepiandrosterone 3-sulphate, reference compound]","promoting survival of neurofilament positive, neuron-like cells, compared to FGF2","DHEAS at 10 μg/ml, three cases",as effective as FGF2
same,% GFAP (mean ± S.D.),[1],31 ± 9%
same,% Neurofilament (mean ± S.D.),[1],70 ± 12%
same,% Neurofilament (mean ± S.D.),"surgical sample 3, glioma l. frontal, 41 M, addition to B27/Neurobasal A, after 6 days",61 ± 10%
same,% Neurofilament (mean ± S.D.),"surgical sample 5, meningioma r. temporal, 70 µM, addition to B27/Neurobasal A, after 6 days",25 ± 10%
